Antibody variant affinities, Ab-14 light chain, assay B

Antigen: PDVDLGDISGINAS, a 14-residue peptide of the SARS-CoV-2 spike HR2 region.

Each scFv is VH, a 15-residue (Gly4Ser)3 linker, VL, as in the parent Ab-14, and differs from it in the CDRs of the light chain only.
VH: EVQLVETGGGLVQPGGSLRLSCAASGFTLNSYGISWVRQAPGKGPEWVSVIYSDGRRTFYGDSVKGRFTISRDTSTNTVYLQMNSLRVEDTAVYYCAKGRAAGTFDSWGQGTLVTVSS
VL: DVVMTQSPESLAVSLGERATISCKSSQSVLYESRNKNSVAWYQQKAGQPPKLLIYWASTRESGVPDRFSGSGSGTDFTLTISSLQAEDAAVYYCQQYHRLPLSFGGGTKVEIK

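The variants were designed computationally from a first round of random CDR variants and then made and measured. Group labels follow the data file (En: ensemble of fine-tuned language models; GP: Gaussian process model; HC: hill climbing; Gen: genetic algorithm; Gibbs: Gibbs sampling; a sequence that several methods proposed may carry one label only). The assay is AlphaSeq: two haploid yeast populations carry antibody and antigen on their surface. The frequency of each diploid, read from paired DNA barcodes, reflects how well the two displayed proteins bind. A regression on co-assayed BCL2-family reference pairs converts the normalised counts of each replicate to an apparent Kd. Each pool was mated in six replicate cultures.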

Variants are written as CDR1, CDR2 and CDR3 of the light chain (limits as in the source). Parent: KSSQSVLYESRNKNSVA, WASTRES, QQYHRLPLS.
This list holds designs with more than six substitutions.
Values are apparent Kd, the geometric mean of the replicates that gave a signal; lower means stronger binding.
"nd" marks a missing value. The strain was present, yet no cells mated with the target were sequenced in any replicate, which points to weak or no binding.
In the paper, a design with two or fewer of six values counts as a poor binder.
The parent sequence was in this pool as ten entries: three were never detected, three once, and four in most replicates, with averages from 2.2 nM to 240 nM.
Values of this round are not directly comparable with the first-round values of the same sequences.
Background: pairings of all light chain designs with three empty control strains gave a value in 4% of cases (median 430 nM, 5th percentile 38 nM). Values in that range, when seen in few replicates, are hard to tell from nonspecific mating. The control count says in how many pairings with the empty strains this scFv gave a signal.

With KQQQSGMMESRNQNSVA, HASTRLS, QQYHRLPLS [GP_Gibbs] the result was 1.6 nM (6 of 6 replicates; controls 0 of 18).
With KMMQSQLYEDRASNAVA, HASQRES, QQYHRLPLS [GP_Gibbs] the result was 970 pM (6 of 6 replicates; controls 0 of 18).
With IVSQLMLWGMHAKNSIA, EAQTRLN, QQYDRLPLQ [En_Gen] the result was nd (0 of 6 replicates; controls 0 of 18).
With KLYNATAMTSSMRNNVA, DLNERER, QQYFRLPLS [En_HC] the result was 9.9 nM (6 of 6 replicates; controls 3 of 18).
With QISLNGWDGEKYEYAVA, EGTKKDA, QQYSRLPLS [En_Gibbs] the result was 17 nM (6 of 6 replicates; controls 1 of 18).
With KLSWDCTTDLNRMHSIA, ESEVAVD, QQYAHLPLT [En_Gibbs] the result was 32 nM (6 of 6 replicates; controls 1 of 18).
With KIGATLNMLEHKQNNVA, DLVTRED, QQYHRLPLS [En_Gen] the result was 1.3 nM (6 of 6 replicates; controls 0 of 18).
With KLLQTVMNETRNRNNVA, HMTTRED, QQYFRLPLS [En_HC] the result was 12 nM (6 of 6 replicates; controls 1 of 18).
With IVSQLMLWGYHHKNSIA, EAQTRLN, QQYERLPLF [En_Gen] the result was 8.8 µM (1 of 6 replicates; controls 2 of 18).
With NLSMELEDAGVKDMSIA, DAELSTW, QQYMRLPLS [En_Gibbs] the result was 21 nM (6 of 6 replicates; controls 0 of 18).
With KLSMITGHMSMIKNNVA, EMETREN, QQYNRLPLA [En_Gen] the result was 1.5 nM (6 of 6 replicates; controls 0 of 18).
With MISDLTSYGSRNKNSVA, DLSTRGS, QQYHRLPLS [En_HC] the result was 560 pM (6 of 6 replicates; controls 1 of 18).
With RLMGLDVTEKNDQSAIA, NAQTHLT, QQYERLPLI [En_Gibbs] the result was 3.8 nM (6 of 6 replicates; controls 0 of 18).
With SVRHPFQGDNGRKASIA, NATIRDH, QQYFRLPLF [En_Gibbs] the result was 2.2 nM (6 of 6 replicates; controls 3 of 18).
With KAQAGDGYESRNKNSVA, QGSKRES, QQYHRLPLS [GP_Gibbs] the result was 5.7 nM (6 of 6 replicates; controls 1 of 18).
With TISQTAQQESHNKNSVA, DLSVRGS, QQYDRLPLS [En_HC] the result was 1.4 nM (6 of 6 replicates; controls 0 of 18).
With TISQSVMMTGLNRNSVA, QASERIE, QQYHRLPLS [En_HC] the result was 2.6 nM (6 of 6 replicates; controls 1 of 18).
With KLGGSTRFESSNKASIA, DNSTRES, QQYHRLPLS [En_HC] the result was 5.2 nM (6 of 6 replicates; controls 2 of 18).
With IVSQSVLGGSRNINSVA, QTSEREY, QQYDRLPLS [En_HC] the result was 3.4 nM (6 of 6 replicates; controls 2 of 18).
With ILQQSMWYESRNKNSVA, DASVRED, QQYHRLPLS [GP_Gibbs] the result was 19 nM (5 of 6 replicates; controls 0 of 18).
With KLEGSHLYESRNANSVA, NASTRMS, QQYHRLPLS [GP_Gibbs] the result was 4.9 nM (6 of 6 replicates; controls 1 of 18).
With KISQMVRVGSTHGNSIA, EQATRAK, QQYHRLPLA [En_Gen] the result was 47 nM (6 of 6 replicates; controls 0 of 18).
With IVSQLMLWGMHHKNSIA, EAQTRLN, QQYDRLPLF [En_Gen] the result was nd (0 of 6 replicates; controls 1 of 18).
With KLQQSTLYMSRNCNSVA, DASQRES, QQYHRLPLS [GP_Gibbs] the result was 2.2 nM (6 of 6 replicates; controls 1 of 18).
With NLVEMEGTNQTAGGNIA, SVDQRMS, QQYQRLPLI [En_Gibbs] the result was 36 nM (6 of 6 replicates; controls 1 of 18).
With MLSQMWALGQKVKNSVA, QASMRFN, QQYDRLPLI [En_Gen] the result was 250 nM (5 of 6 replicates; controls 0 of 18).
With HITYGMMVMGRHSKSIA, QAEERAK, QQYDRLPLS [En_Gen] the result was 9.7 nM (6 of 6 replicates; controls 1 of 18).
With KVSFSVMLESRNKNAVA, EASQRES, QQYHRLPLS [GP_Gibbs] the result was 2.8 nM (6 of 6 replicates; controls 3 of 18).
With NFPQEVMYESHFKNNVA, QTSTREE, QQYDHLPLS [En_HC] the result was 1.1 nM (6 of 6 replicates; controls 5 of 18).
With KIGQQLNQLMHQKNNVA, DLVMREK, QQYHRLPLS [En_Gen] the result was 2.0 nM (6 of 6 replicates; controls 0 of 18).
With QISMMMNLSMHGTNNVA, QMETREK, QQYDRLPLS [En_Gen] the result was 240 nM (5 of 6 replicates; controls 0 of 18).
With NFPQEVMYESHFKNNVA, QTSTRED, QQYDHLPLS [En_HC] the result was 1.2 nM (6 of 6 replicates; controls 1 of 18).
With HVSQSKLQGQRNKNSVA, EASTRER, QQYHRLPLS [GP_Gibbs] the result was 4.7 nM (6 of 6 replicates; controls 0 of 18).
With KARQSQLYESRNQNSVA, NASQRLS, QQYHRLPLS [GP_Gibbs] the result was 34 nM (6 of 6 replicates; controls 0 of 18).
With NIVGRAQMQDSGRQAIA, NAHARCT, QQYFHLPLT [En_Gibbs] the result was 3.9 nM (6 of 6 replicates; controls 1 of 18).
With KLSIFHQVESINKSNVA, EMVTRES, QQYDRLPLS [En_HC] the result was 79 nM (4 of 6 replicates; controls 0 of 18).
With MISDLTMYGSRNKNSVA, DLSTRGS, QQYHHLPLS [En_HC] the result was 840 pM (6 of 6 replicates; controls 0 of 18).
With MLSQMWAIGMKVKNSVA, QASMRFN, QQYDRLPLI [En_Gen] the result was 4.1 nM (6 of 6 replicates; controls 0 of 18).

The last 6 entries again:

Variant HVSQSKLQGQRNKNSVA, EASTRER, QQYHRLPLS [GP_Gibbs] gave 4.7 nM (6 of 6 replicates; controls 0 of 18).
Variant KARQSQLYESRNQNSVA, NASQRLS, QQYHRLPLS [GP_Gibbs] gave 34 nM (6 of 6 replicates; controls 0 of 18).
Variant NIVGRAQMQDSGRQAIA, NAHARCT, QQYFHLPLT [En_Gibbs] gave 3.9 nM (6 of 6 replicates; controls 1 of 18).
Variant KLSIFHQVESINKSNVA, EMVTRES, QQYDRLPLS [En_HC] gave 79 nM (4 of 6 replicates; controls 0 of 18).
Variant MISDLTMYGSRNKNSVA, DLSTRGS, QQYHHLPLS [En_HC] gave 840 pM (6 of 6 replicates; controls 0 of 18).
Variant MLSQMWAIGMKVKNSVA, QASMRFN, QQYDRLPLI [En_Gen] gave 4.1 nM (6 of 6 replicates; controls 0 of 18).

From the AlphaSeq antibody data of Li et al. 2023 (doi:10.1038/s41467-023-39022-2), copy in the FLAb collection.